{
  "source": "patent US4640910A",
  "about": "(Abbott Laboratories, priority 1985, dated 1987)",
  "key": {"Staph. aureus 45": {"tested_on": "Staph. aureus 45", "assay": "Antimicrobial spectrum, agar dilution MIC", "type": "cell-based", "settings": "Staphylococcus aureus, BHI agar, 35°-37° C., 20-24 hours"}, "Staph. aureus 45 RAR2": {"tested_on": "Staph. aureus 45 RAR2", "assay": "Antimicrobial spectrum, agar dilution MIC", "type": "cell-based", "settings": "Staphylococcus aureus, BHI agar, 35°-37° C., 20-24 hours"}},
  "data": [
    {"smiles": "CC[C@H]1OC(=O)[C@H](C)[C@@H](O[C@H]2C[C@@](C)(OC)[C@@H](O)[C@H](C)O2)[C@H](C)[C@@H](O[C@@H]2O[C@H](C)C[C@H](N(C)C)[C@H]2O[Si](C)(C)C)[C@](C)(OC)C[C@@H](C)C(=O)[C@H](C)[C@@H](O)[C@]1(C)O", "note": "[Example 3, 2'-O-trimethylsilyl-6-O-methyl-Erythromycin A]", "values": [
      {"measurement": "MIC", "setting": "Staph. aureus 45", "value": 0.78, "unit": "µg/mL"},
      {"measurement": "MIC", "setting": "Staph. aureus 45 RAR2", "value": 0.78, "unit": "µg/mL"}
    ]}
  ]
}
